The values below are quoted from earlier work in paper PMC6261293 (European journal of medicinal chemistry, 2018).

Sequences of proteins named here, by UniProt entry; tags and fusion partners are left off. A change or cut given only in a name is not applied to a line headed by its entry.
UniProt P53779: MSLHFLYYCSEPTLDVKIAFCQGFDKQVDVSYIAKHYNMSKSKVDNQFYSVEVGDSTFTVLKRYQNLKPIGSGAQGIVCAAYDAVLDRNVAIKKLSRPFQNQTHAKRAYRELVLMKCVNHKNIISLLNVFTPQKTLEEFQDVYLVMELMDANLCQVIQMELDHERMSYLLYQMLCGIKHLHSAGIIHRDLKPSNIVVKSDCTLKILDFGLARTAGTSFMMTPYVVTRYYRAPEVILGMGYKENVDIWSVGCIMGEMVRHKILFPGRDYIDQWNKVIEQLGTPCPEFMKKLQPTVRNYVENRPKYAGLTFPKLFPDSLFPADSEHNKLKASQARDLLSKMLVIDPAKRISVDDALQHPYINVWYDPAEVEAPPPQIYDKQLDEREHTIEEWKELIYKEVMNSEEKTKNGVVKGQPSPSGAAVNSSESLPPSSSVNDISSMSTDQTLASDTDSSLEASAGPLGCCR
UniProt P45983: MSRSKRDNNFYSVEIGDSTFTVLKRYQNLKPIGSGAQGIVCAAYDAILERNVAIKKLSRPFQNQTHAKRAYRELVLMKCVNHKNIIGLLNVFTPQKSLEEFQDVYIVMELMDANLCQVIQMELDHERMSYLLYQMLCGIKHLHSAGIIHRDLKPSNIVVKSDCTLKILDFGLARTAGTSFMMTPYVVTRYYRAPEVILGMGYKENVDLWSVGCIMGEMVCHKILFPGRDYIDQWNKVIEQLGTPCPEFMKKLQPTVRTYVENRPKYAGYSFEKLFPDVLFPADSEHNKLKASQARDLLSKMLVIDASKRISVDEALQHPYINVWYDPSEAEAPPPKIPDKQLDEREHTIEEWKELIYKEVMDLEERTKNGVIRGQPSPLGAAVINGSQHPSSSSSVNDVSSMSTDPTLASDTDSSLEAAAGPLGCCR

For one data set, the target named is JNK3 (Homo sapiens, UniProt P53779). The following applies: read-out: JNK3 Kd; known JNK inhibitors; ref [29]; cited from earlier work.
The next data set addresses JNK1 (Homo sapiens, UniProt P45983). The following applies: read-out: JNK1 Kd; known JNK inhibitors; ref [29]; cited from earlier work.

Broadly, the Kd is the concentration at which binding is half-saturated. Turning to “anthra[1–9-cd]pyrazol-6(2H)-one [SP600125]”, the Kd on JNK3 was 22 ± 9 nM; on JNK1 it was 100 ± 43 nM.
